Consider 1 molecule from ChEMBL document CHEMBL4024773, “The Magic of Crystal Structure-Based Inhibitor Optimization: Development of a Butyrylcholinesterase Inhibitor with Picomolar Affinity and in Vivo Activity” (J Med Chem, 2018).

Chains of the proteins cited; added tags and fusions are not shown.
UniProt P06276, whole entry: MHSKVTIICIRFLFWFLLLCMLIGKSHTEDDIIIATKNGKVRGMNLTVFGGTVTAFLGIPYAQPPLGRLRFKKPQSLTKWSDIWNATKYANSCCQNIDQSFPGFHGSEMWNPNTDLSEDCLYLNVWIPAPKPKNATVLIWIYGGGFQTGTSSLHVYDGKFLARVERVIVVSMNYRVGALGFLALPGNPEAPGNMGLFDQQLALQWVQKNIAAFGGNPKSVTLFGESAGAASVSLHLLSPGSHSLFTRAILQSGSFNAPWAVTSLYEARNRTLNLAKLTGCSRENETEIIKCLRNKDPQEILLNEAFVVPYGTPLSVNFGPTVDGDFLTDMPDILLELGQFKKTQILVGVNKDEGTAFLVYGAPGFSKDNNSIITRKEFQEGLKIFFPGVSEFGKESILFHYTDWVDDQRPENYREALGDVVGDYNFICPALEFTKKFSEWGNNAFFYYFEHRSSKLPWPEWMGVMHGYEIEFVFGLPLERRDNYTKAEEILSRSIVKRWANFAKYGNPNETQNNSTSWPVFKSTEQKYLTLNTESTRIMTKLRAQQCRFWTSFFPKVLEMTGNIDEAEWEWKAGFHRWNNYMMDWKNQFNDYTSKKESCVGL

The target in this experiment is Cholinesterase (Homo sapiens, UniProt P06276).

For orientation: IC50 means the midpoint of a concentration-inhibition curve. A lower IC50 goes with greater potency. As for `CCN(C)C(=O)Oc1cccc([C@H](C)N(C)C)c1` [RIVASTIGMINE], the IC50 turned out to be 370 nM. This lies in the sub-micromolar range.
